Experimental data as given in patent US10654836B2, “Pyrimidine derivative, method for preparing same and use thereof in medicine” (Zhejiang Hisun Pharmaceutical Co., Ltd., priority 2016, dated 2020).

Key:
[1] = system: hepatocellular carcinoma tumor cells Huh7; assay: Huh7 tumor cell proliferation inhibition (CCK-8); assay type: cell-based; conditions: Homo sapiens, Huh-7; 72 hours culture
Method: The following method was used to determine the effect of the compounds of the present invention against tumor cell proliferation. For the FGFR4 subtype, hepatocellular carcinoma tumor cells Huh7 (purchased from the Cell Resource Center of Shanghai Institutes for Biological Sciences, Chinese Academy of Sciences) were used to determine the inhibition against the activity of hepatocellular carcinoma tumor cells. Huh7 cells were cultured in a DMEM medium containing 10% of fetal bovine serum, 100 U of penicillin and 100 μg/mL of streptomycin. Cultured in an incubator of 37° C., 5% CO2. Hepatocellular carcinoma tumor cell activity was measured by using a kit of Cell Counting Kit-8 (Dojindo, Dojindo Molecular Technologies, Inc).
The experimental method was carried out according to the steps of the kit instructions, and is briefly described as follows: the test compound was first dissolved in DMSO to prepare a stock solution, and then gradiently diluted with the corresponding medium of the cells to prepare a test sample, and the final concentration of the compound was in the range of 30 μM to 0.01 nM. Tumor cells in the logarithmic phase were seeded into 96-well cell culture plates at a suitable density, cultured in an incubator of 37° C., 5% CO2 overnight, then test compound samples were added and continued to culture the cells for 72 hours. After completion of the culture, a suitable volume of CCK-8 test solution was added to each well, and incubated at 37° C. for 1 to 4 hours, and then the absorbance values of the respective wells at 450 nM were read on a microplate reader.

[2] = system: hepatocellular carcinoma tumor cell Huh7 xenografts; assay: Growth inhibition of Huh7 xenografts in tumor-bearing BALB/c nude mice; assay type: in vivo; conditions: for Relative tumor growth rate T/C (%): bid
Method: On day 0, Huh7 cells were cultured in DMEM medium containing 10% of fetal bovine serum, 100 U of penicillin, and 100 μg/mL of streptomycin. And cultured in an incubator of 37° C., 5% CO2.
Each mouse was inoculated subcutaneously in the right axilla with 150 μL of cell suspension (5.0×10^6 cells/mouse) under sterile conditions. On day 12 after inoculation, when the tumor grew to a volume of 200-300 mm^3, mice with similar tumor volume and good shape were selected (the shape was as single spherical as possible, no irregular shape or multiple tumors gathered together) and divided into 5 groups, each group had 9 mice.
Each group of animals was administrated (intraperitoneal injection (ip) or oral administration (po)) a test substance twice a day (bid) at a fix time per day according to the body weight of the animals. The first dose was administered on the day of grouping ([…]), and continued for 22 days, the body weight of the animals was recorded daily.
The formation of tumor in the inoculated part of each group of animals was observed. The long diameter (Y) and short diameter (X) of the tumor nodules were measured twice a week using vernier calipers and calculated according to the following formula: Volume of tumor nodules(V): V=(X^2Y)/2.
Evaluation index of antitumor activity: tumor growth inhibition rate TGI (%), relative tumor proliferation rate T/C (%).
The relative tumor volume (RTV) is calculated as: RTV=100×TVt/TVinitial
wherein, TVinitial is the tumor volume measured at the time of grouping administration; TVt is the tumor volume at each measurement during administration.
The calculation formula for the relative tumor proliferation rate (% T/C) is: % T/C=100%×(RTVT/RTVC)
wherein, RTVT represents RTV of the treatment group; RTVC represents RTV of the solvent control group.
wherein, TVt(T) represents the tumor volume at each measurement in the treatment group; TVinitial(T) represents the tumor volume of the treatment group at the time of grouping administration; TVt(C) represents the tumor volume at each measurement in the solvent control group; TVinitial(C) represents the tumor volume of the solvent control group at the time of grouping administration.
wherein, WC represents the tumor weight of the control group; WT represents the tumor weight of the treatment group.

C=CC(=O)Nc1cc(N2CCC3(CCN(CC)C3)C2)ccc1Nc1cc(N(C)C(=O)Nc2c(Cl)c(OC)cc(OC)c2Cl)ncn1 (centres unmarked) [Example 6, N-(2-((6-(3-(2,6-Dichloro-3,5-dimethoxyphenyl)-1-methylureido)pyrimidin-4-yl)amino)-5-(7-ethyl-2,7-diazaspiro[4.4]nonan-2-yl)phenyl)acrylamide]
IC50 [1]: 10 nM

C=CC(=O)Nc1cc(N2CCN(CC)C3(CC3)C2)ccc1Nc1cc(N(C)C(=O)Nc2c(Cl)c(OC)cc(OC)c2Cl)ncn1 [Example 5, N-(2-((6-(3-(2,6-Dichloro-3,5-dimethoxyphenyl)-1-methylureido)pyrimidin-4-yl)amino)-5-(4-ethyl-4,7-diazaspiro[2.5]octan-7-yl)phenyl)acrylamide]
IC50 [1]: 12 nM | Relative tumor growth rate T/C (%) ([2]; 25 mg/kg IP, Day 13 after inoculation): 100% | Relative tumor growth rate T/C (%) ([2]; 25 mg/kg IP, Day 16 after inoculation): 91% | Relative tumor growth rate T/C (%) ([2]; 25 mg/kg IP, Day 20 after inoculation): 86% | Relative tumor growth rate T/C (%) ([2]; 25 mg/kg IP, Day 23 after inoculation): 78% | Relative tumor growth rate T/C (%) ([2]; 25 mg/kg IP, Day 27 after inoculation): 76% | Relative tumor growth rate T/C (%) ([2]; 25 mg/kg IP, Day 30 after inoculation): 79% | Relative tumor growth rate T/C (%) ([2]; 25 mg/kg IP, Day 34 after inoculation): 85% | Relative tumor growth rate T/C (%) ([2]; 50 mg/kg IP, Day 13 after inoculation): 100% | Relative tumor growth rate T/C (%) ([2]; 50 mg/kg IP, Day 16 after inoculation): 80% | Relative tumor growth rate T/C (%) ([2]; 50 mg/kg IP, Day 20 after inoculation): 65% | Relative tumor growth rate T/C (%) ([2]; 50 mg/kg IP, Day 23 after inoculation): 48% | Relative tumor growth rate T/C (%) ([2]; 50 mg/kg IP, Day 27 after inoculation): 44% | Relative tumor growth rate T/C (%) ([2]; 50 mg/kg IP, Day 30 after inoculation): 49% | Relative tumor growth rate T/C (%) ([2]; 50 mg/kg IP, Day 34 after inoculation): 60% | Relative tumor growth rate T/C (%) ([2]; 300 mg/kg PO, Day 13 after inoculation): 100% | Relative tumor growth rate T/C (%) ([2]; 300 mg/kg PO, Day 16 after inoculation): 61% | Relative tumor growth rate T/C (%) ([2]; 300 mg/kg PO, Day 20 after inoculation): 25% | Relative tumor growth rate T/C (%) ([2]; 300 mg/kg PO, Day 23 after inoculation): 16% | Relative tumor growth rate T/C (%) ([2]; 300 mg/kg PO, Day 27 after inoculation): 13% | Relative tumor growth rate T/C (%) ([2]; 300 mg/kg PO, Day 30 after inoculation): 9.4% | Relative tumor growth rate T/C (%) ([2]; 300 mg/kg PO, Day 34 after inoculation): 9.0% | growth inhibitory effect against the in vivo tumor model (in words) ([2]; mouse, in vivo): significant growth inhibitory effect | in vivo activity compared with Example 108 of WO2015057938 (in words) ([2]; mouse, in vivo): superior to that of the compound of Example 108 of WO2015057938

C=CC(=O)Nc1cc(N2CCC(N(C)C)CC2)ccc1Nc1cc(N(C)C(=O)Nc2c(Cl)c(OC)cc(OC)c2Cl)ncn1 [Example 7, N-(2-((6-(3-(2,6-Dichloro-3,5-dimethoxyphenyl)-1-methylureido)pyrimidin-4-yl)amino)-5-(4-(dimethylamino)piperidin-1-yl)phenyl)acrylamide]
IC50 [1]: 4.8 nM
